Protein sequences, listed by entry. Tags and fused reporters are not part of them. Lines headed by an entry give the natural chain unless they say otherwise; changes in a name come on top.
UniProt P08254: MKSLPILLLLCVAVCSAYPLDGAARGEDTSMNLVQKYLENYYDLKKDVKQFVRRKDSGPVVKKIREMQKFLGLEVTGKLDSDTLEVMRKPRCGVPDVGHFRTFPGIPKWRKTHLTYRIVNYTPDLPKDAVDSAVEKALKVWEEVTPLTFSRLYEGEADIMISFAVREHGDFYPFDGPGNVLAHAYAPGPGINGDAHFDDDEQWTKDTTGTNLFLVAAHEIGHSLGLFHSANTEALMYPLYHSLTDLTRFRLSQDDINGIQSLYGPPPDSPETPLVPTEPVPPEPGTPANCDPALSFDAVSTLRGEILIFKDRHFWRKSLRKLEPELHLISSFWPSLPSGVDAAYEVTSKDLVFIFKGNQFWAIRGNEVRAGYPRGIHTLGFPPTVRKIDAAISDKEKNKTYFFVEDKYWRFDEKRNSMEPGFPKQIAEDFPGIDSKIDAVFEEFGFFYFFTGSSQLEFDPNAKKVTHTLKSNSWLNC

According to ChEMBL document CHEMBL1132009, “Inhibition of MMP-1 and MMP-13 with phosphinic acids that exploit binding in the S2 pocket” (Bioorg Med Chem Lett, 1999):

Molecular target: Stromelysin-1 (Homo sapiens, UniProt P08254)
Assay: Inhibition of recombinant matrix metalloprotease-3 (MMP-3)

Work on CC(C)C[C@@H](NC(=O)[C@H](CCc1ccccc1)CP(=O)(O)CCCCN1C(=O)c2ccccc2C1=O)C(=O)Nc1ccccc1 yielded a Ki of 1.4 nM.
